Data from publication PMC4869123 (Scientific Reports, 2016).
Entries after “also recorded” stand apart in the source; their conditions may differ.

Sequences of proteins named here, by UniProt entry; tags and fusion partners are left off. Residues count along the entry.
UniProt Q96F46, 33-866: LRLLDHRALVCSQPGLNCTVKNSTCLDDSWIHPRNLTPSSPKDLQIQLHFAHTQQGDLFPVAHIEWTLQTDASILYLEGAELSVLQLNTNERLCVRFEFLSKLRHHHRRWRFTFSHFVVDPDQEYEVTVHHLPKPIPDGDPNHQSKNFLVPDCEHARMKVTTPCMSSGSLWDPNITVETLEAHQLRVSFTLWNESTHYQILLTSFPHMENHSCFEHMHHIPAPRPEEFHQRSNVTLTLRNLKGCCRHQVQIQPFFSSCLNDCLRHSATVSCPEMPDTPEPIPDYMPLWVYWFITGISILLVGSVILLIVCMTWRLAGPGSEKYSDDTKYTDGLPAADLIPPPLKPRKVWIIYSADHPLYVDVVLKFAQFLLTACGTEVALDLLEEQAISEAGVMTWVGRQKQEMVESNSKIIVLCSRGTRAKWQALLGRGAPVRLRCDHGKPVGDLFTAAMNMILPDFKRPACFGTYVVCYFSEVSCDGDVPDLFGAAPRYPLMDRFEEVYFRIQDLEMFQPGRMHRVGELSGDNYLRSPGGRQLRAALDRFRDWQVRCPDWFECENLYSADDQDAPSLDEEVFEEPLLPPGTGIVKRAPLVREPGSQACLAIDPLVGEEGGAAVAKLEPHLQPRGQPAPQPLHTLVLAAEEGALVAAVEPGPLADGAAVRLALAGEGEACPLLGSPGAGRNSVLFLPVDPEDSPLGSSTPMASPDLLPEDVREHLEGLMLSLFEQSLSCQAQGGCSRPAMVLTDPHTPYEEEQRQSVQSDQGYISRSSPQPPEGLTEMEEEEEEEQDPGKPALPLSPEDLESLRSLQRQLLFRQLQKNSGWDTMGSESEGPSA
UniProt P01375, 77-233 limits assumed: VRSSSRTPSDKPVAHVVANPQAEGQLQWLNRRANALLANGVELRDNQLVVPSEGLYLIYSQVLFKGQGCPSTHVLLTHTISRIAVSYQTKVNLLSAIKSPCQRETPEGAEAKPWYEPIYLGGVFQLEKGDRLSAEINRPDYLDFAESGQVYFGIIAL
UniProt Q96PD4, 31-163 C47S/C137S: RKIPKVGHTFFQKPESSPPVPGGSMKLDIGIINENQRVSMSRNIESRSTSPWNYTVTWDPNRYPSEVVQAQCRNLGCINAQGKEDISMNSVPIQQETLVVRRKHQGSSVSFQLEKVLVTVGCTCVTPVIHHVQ
UniProt Q16552, 24-155: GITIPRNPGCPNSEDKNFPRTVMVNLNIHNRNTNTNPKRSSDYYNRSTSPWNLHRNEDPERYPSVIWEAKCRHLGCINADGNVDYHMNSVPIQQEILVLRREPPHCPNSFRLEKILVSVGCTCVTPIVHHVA

Experiments:
IL-17RA = IL-17RA (Homo sapiens, UniProt Q96F46); assay: SPR binding to immobilized IL-17RA; conditions: concentrations up to 100 nM
TNF-α [1] = target: T1, TNF-α (Homo sapiens, UniProt P01375); assay: Primary human keratinocytes stimulated by TNF-α alone, baseline cytokine production; format: cell-based; conditions: 10 ng/ml TNF-α alone, listed as HAP
T1 construct: purchased Sigma-Aldrich, St Louis, MO
Experimental: Figure 1 Binding of HAP to IL-17A and inhibition of IL-17A/IL-17RA are measured by SPR, FRET and cell-based assays. (A) Typical SPR sensorgrams (black) of HAP at indicated concentrations binding to biotinylated human IL-17A immobilized on a streptavidin chip surface, fitted with single site binding model curves (red). Kinetic parameters (ka, kd) were obtained by a global fit using three concentrations in triplicate. KD determined by the standard equation, KD = kd/ka. (B) HAP inhibits SPR signaling of IL-17A binding to immobilized IL-17RA. Data are mean and error bars of +/− standard deviation of three measurements. (C) Inhibition of IL-17A and IL-17RA binding by HAP measured by FRET assay. Data are mean and error bars of +/− standard deviation from 299 experiments, each performed in duplicate. […] Data are mean and error bars of +/− standard deviation of duplicated experiments. […]; (C) HAP: 0.8(+/-0.2) nM DOUBTS OF THE COPYIST ABOUT THIS PICTURE: Panel A prints no substance label of its own (only 'IL17A - 3200 RU'); […]
While either IL-17A or TNF-α alone can stimulate the release of multiple inflammatory cytokines, when acting together they can synergistically enhance each other’s effects (Supplementary Figure S5). These integrative responses to IL-17A and TNF-α in human keratinocytes have been reported to account for key inflammatory pathogenic circuits in psoriasis. […]

human IL-17F homodimer = human IL-17F homodimer (Homo sapiens, UniProt Q96PD4, C137S/C47S); conditions: SPR, concentrations up to 100 nM
mouse IL-17A = target: T2, mouse IL-17A (Mus musculus, UniProt Q62386); assay: SPR binding to immobilized mouse IL-17A
T2 construct: purchased Cell Signaling
T2 sequence (Q62386 26-158): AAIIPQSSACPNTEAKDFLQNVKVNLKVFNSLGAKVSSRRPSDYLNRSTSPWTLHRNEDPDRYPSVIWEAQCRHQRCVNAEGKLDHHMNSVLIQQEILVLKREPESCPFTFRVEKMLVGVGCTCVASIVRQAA

TNF-α [2] = target: T1, TNF-α; assay: BJ human fibroblast, TNF-α stimulated IL-6 production; format: cell-based; conditions: 10 ng/ml TNF-α, concentrations up to 10 μM
Experimental: Figure S2. Inhibition of IL-17Ainduced IL-6 production by HAP in BJ
fibroblasts. BJ cells were cultured in the presence of TNF-α (10ng/ml) or IL-
17A (1 ng/ml) with a series of concentration of HAPfor 24 hours after which
time cell culture supernatants were removed for analysis of IL-6 production.It
(1 picture or pasted object on this page, not shown here)

human IL-17A = target: T3, human IL-17A (Homo sapiens, UniProt Q16552); assay: BJ human fibroblast cell assay, IL-17A stimulated GRO-α production; format: cell-based; conditions: BJ human fibroblast cells, 1 ng/ml human IL-17A
T3 construct: host or cells: added to BJ human fibroblasts (ATCC CRL2522)

| Compound | binding to immobilized IL-17RA (IL-17RA) | inhibition of baseline IL-8, IL-6 and CCL-20 production (TNF-α [1]) | binding to immobilized human IL-17F homodimer (human IL-17F homodimer) | weaker affinity for mouse IL-17A versus human IL-17A (mouse IL-17A) [fold] | inhibition of TNF-α stimulated IL-6 production (TNF-α [2]) | Cell IC50 (human IL-17A) | IC50 (human IL-17A) [nM] |
| --- | --- | --- | --- | --- | --- | --- | --- |
| CC[C@H](C)[C@H](NC(C)=O)C(=O)N[C@@H](Cc1c[nH]cn1)C(=O)N[C@H](C(=O)N[C@H](C(=O)N[C@H](C(=O)N1CCC[C@H]1C(=O)N[C@@H](C)C(=O)N[C@@H](CC(=O)O)C(=O)N[C@@H](CC(C)C)C(=O)N[C@@H](Cc1c[nH]c2ccccc12)C(=O)N[C@@H](CC(=O)O)C(=O)N[C@@H](Cc1c[nH]c2ccccc12)C(=O)N[C@H](C(=O)N[C@@H](CC(N)=O)C(=O)N[C@@H](CCCCN)C(N)=O)[C@@H](C)CC)[C@@H](C)CC)[C@@H](C)O)C(C)C [Compound 30] | does not show significant binding | does not inhibit; also recorded: not inhibited | does not show significant binding | > 10 | does not inhibit | – | – |
| CC[C@H](C)[C@H](NC(=O)[C@H](Cc1c[nH]c2ccccc12)NC(=O)[C@H](CC(=O)O)NC(=O)[C@H](Cc1c[nH]c2ccccc12)NC(=O)[C@H](CC(C)C)NC(=O)[C@H](CC(=O)O)NC(=O)[C@H](C)NC(=O)[C@@H]1CCCN1C(=O)[C@@H](NC(=O)[C@@H](NC(=O)[C@@H](NC(=O)[C@H](Cc1c[nH]cn1)NC(C)=O)C(C)C)[C@@H](C)O)[C@@H](C)CC)C(=O)N[C@@H](CC(N)=O)C(=O)N[C@@H](CCCCN)C(N)=O [Compound 32] | – | – | – | – | – | completely abolishes | > 1000 |
| CC[C@H](C)[C@H](NC(=O)[C@H](Cc1c[nH]c2ccccc12)NC(=O)[C@H](CC(=O)O)NC(=O)[C@H](Cc1c[nH]c2ccccc12)NC(=O)[C@H](CC(C)C)NC(=O)[C@H](CC(=O)O)NC(=O)[C@H](C)NC(=O)[C@@H]1CCCN1C(=O)[C@@H](NC(=O)[C@@H](NC(=O)[C@@H](NC(C)=O)C(C)C)[C@@H](C)O)[C@@H](C)CC)C(=O)N[C@@H](CC(N)=O)C(=O)N[C@@H](CCCCN)C(N)=O [Compound 33] | – | – | – | – | – | completely abolishes | > 1000 |
| CC[C@H](C)[C@H](NC(C)=O)C(=O)N[C@@H](Cc1c[nH]cn1)C(=O)N[C@H](C(=O)N[C@H](C(=O)N[C@H](C(=O)N1CCC[C@H]1C(=O)N[C@@H](C)C(=O)N[C@@H](CC(=O)O)C(=O)N[C@@H](CC(C)C)C(=O)N[C@@H](Cc1c[nH]c2ccccc12)C(=O)N[C@@H](CC(=O)O)C(=O)N[C@@H](Cc1c[nH]c2ccccc12)C(N)=O)[C@@H](C)CC)[C@@H](C)O)C(C)C [Compound 37] | – | – | – | – | – | no longer active | > 1000 |
| CC[C@H](C)[C@H](NC(C)=O)C(=O)N[C@H](C(=O)N[C@H](C(=O)N[C@H](C(=O)N[C@H](C(=O)N1CCC[C@H]1C(=O)N[C@@H](C)C(=O)N[C@@H](CC(=O)O)C(=O)N[C@@H](CC(C)C)C(=O)N[C@@H](Cc1c[nH]c2ccccc12)C(=O)N[C@@H](CC(=O)O)C(=O)N[C@@H](Cc1c[nH]c2ccccc12)C(=O)N[C@H](C(=O)N[C@@H](CC(N)=O)C(=O)N[C@@H](CCCCN(C)C)C(N)=O)[C@@H](C)CC)[C@@H](C)CC)[C@@H](C)O)C(C)C)[C@@H](C)O [Compound 38] | – | – | – | – | – | comparable in activity with HAP | 12 |
